Source: ChEMBL document CHEMBL1128746, “Aminoalkylindoles: structure-activity relationships of novel cannabinoid mimetics” (J Med Chem, 1995)

Amino acid sequences for entries named in this document (tags omitted).
UniProt P20272, whole entry: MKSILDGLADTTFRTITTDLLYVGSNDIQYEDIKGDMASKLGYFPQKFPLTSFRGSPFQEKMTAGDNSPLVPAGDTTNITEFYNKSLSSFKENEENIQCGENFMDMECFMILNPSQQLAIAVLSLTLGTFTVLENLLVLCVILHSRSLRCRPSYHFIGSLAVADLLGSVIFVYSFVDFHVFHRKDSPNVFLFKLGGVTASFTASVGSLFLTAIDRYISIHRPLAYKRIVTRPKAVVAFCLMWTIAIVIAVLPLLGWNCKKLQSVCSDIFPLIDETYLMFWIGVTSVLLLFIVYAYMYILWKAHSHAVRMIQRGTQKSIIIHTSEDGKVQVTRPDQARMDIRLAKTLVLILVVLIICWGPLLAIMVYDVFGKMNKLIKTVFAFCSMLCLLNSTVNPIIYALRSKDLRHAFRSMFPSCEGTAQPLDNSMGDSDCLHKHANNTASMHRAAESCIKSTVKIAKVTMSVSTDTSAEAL

Molecular target: Cannabinoid receptor 1 (Rattus norvegicus, UniProt P20272)
Test: […] [3H]WIN-55212 binding to Cannabinoid receptor 1 in rat cerebellum membranes.
Format: cell membranes, Membrane

For `Cc1c(C(=O)c2ccc3cccnc3c2)c2ccccc2n1CCN1CCOCC1`, the IC50 was 177 nM.
